# Source: patent US20260103465A1, “GLYCOGEN SYNTHASE KINASE 3 INHIBITORS AND USES THEREOF” (The Broad Institute, Inc., priority 2023, published 2026)
# Chains of the proteins cited; added tags and fusions are not shown.
# UniProt P49840, whole entry: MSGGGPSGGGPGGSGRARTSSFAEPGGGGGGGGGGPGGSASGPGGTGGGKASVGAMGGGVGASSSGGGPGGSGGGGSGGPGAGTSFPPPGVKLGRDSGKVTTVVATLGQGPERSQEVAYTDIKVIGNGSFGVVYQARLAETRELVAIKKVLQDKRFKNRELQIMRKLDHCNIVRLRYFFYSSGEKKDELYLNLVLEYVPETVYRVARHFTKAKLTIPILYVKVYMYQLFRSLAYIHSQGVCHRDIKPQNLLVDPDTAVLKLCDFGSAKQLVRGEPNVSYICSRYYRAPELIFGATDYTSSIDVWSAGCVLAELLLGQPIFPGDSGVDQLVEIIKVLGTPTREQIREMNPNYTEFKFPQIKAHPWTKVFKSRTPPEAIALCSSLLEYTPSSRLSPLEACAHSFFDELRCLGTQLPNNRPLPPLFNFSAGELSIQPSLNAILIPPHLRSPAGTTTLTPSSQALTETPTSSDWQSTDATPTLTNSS
# UniProt P49841, whole entry: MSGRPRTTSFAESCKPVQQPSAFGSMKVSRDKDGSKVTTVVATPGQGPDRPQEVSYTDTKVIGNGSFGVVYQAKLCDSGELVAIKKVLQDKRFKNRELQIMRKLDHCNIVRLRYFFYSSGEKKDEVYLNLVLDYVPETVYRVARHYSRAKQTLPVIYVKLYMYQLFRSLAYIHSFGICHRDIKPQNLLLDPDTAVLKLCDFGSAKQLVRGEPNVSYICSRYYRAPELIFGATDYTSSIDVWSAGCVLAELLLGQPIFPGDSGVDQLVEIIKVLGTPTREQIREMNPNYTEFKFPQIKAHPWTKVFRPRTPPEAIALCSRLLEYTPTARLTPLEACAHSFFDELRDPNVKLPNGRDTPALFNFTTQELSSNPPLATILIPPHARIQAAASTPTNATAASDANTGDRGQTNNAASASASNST
# Experiments:
# [1] = molecular target: GSK3a (GST-full length GSK3a) (Homo sapiens, UniProt P49840); assay: GSK3a TR-FRET kinase inhibition assay
# Experimental: (§1) TR-FRET assay was performed in a white, 384 well, low volume, flat bottom plate (Grenier). After a 30 minute preincubation in assay buffer with the indicated concentration of compound, the kinase activity was initiated by the addition of the substrates. 1 nM GSK3a (GST-full length GSK3a [SignalChem G08-10G]) or 1 nM GSK3b (GST-full length GSK3b: [SignalChem G08-9G]) were then incubated at ambient temperature for 100 minutes in 10 μl of 50 mM Tris, pH 7.5, 20 mM MgCl2, 0.05 mM DTT, 100 μg/ml BSA and 1% DMSO, with 200 nM biotinylated peptide substrate (biotinylated and S645 phosphorylated glycogen synthase 631-650) and ATP (e.g., at 2 μM, 4 μM, 10 μM, 100 μM, or 1 mM). The kinase activity was quenched with 2 μl of 250 mM EDTA. A 10 μl volume of 40 nM Strepavidin-d2, 2 nM […] antibody in TR-FRET Detection Buffer (Invitrogen) was then added. After 60 min at room temperature the plate was read on Envision plate reader using Ex: 340 nm, Em: 615 nm and […]. The normalized 665/615 Signal ratio versus log compound concentration was analyzed by XLFIT to yield IC50 values.
# [2] = molecular target: GSK3b (GST-full length GSK3b) (Homo sapiens, UniProt P49841); assay: GSK3b TR-FRET kinase inhibition assay
# Experimental: as §1
# [3] = Human liver microsomal stability; conditions: human liver microsomes
# Experimental: Stability of compound (5 μL of a 10 mM DMSO solution) in human liver microsomes was tested in duplicate by incubating compound at 1 μM for 60 minutes at 37° C. Compound level at 60 minutes was compared to level at 0 minutes, and percent remaining was calculated. Order by selecting Microsomal Stability in Prometheus, checking boxes for desired species. Assay Controls: microsomes with NADPH without compound-matrix interference. Microsomes plus compound without NADPH—non-enzymatic instability.
# [4] = tested on: MDR1-MDCK cell monolayers; assay: MDR1/MDCK permeability assay; conditions: for MDCK Permeability (MDR1-MDCK); Mean; Papp(A-B) (10^−6 cm/s): A to B; for MDCK Permeability (MDR1-MDCK); Mean; Papp(B-A) (10^−6 cm/s): B to A
# Description: The MDR1/MDCK assay is run at WuXi and Absorption Systems. This assay is used to determine the blood-brain barrier (BBB) penetration potential of a test compound using MDR1-MDCK cell monolayers. Catalog number EA203.
# • The percent recovery of the test compound from the Transwell® wells containing MDR1-MDCK cell monolayers • The apparent permeability (Papp) in both directions • The efflux ratio (Papp B to A)/(Papp A to B) • The blood-brain barrier penetration potential classification: • High when • Papp A to B≥3.0×10^−6 cm/s, and efflux<3.0 • Moderate when • Papp A to B≥3.0×10^−6 cm/s, and 10>efflux≥3.0 • Low when either • Papp A to B≥3.0×10^−6 cm/s, and […], or when • Papp A to B<[…].
# • Test compound at 5 μM in HBSSg with maximum DMSO concentration not greater than 1%.
# • Confluent monolayers of MDR1-MDCK cells, 7 to 11 days old.
# • Receiver well with 1% BSA in modified Hanks buffer (HBSSg) • Apical and basolateral side at pH 7.4 • Dose two monolayers in each direction (N=2) • Dose apical side for (A to B) assessment • Dose basolateral side for (B to A) assessment • Sample both apical and basolateral sides at 120 minutes • Determine the concentrations of test compound using a generic LC-MS/MS method with a minimum 4 point calibration curve.
# • The quality of the cell monolayer batch is verified using control compounds before monolayers are released for use • The quality of each monolayer used in the assay is verified by a TEER measurement and by calculating the Papp for a control compound.
# [5] = read-out: GSK3α TR-FRET 1 mM ATP Average IC50, 1 mM ATP, Table 5
# [6] = read-out: GSK3β TR-FRET 1 mM ATP Average IC50, 1 mM ATP, Table 5
# [7] = read-out: GSK3α TR-FRET 4 μM ATP GMean IC50, 4 μM ATP
# [8] = read-out: GSK3β TR-FRET 2 μM ATP GMean IC50, 2 μM ATP
# [9] = read-out: GSK3a TR-FRET 1 mM ATP Average IC50, 1 mM ATP, Table 3
# [10] = read-out: GSK3b TR-FRET 1 mM ATP Average IC50, 1 mM ATP, Table 3
"IC50 [1, 7] [nM]",Microsome Stability (Human) (DMPK_BIIB); Mean; in vitro t1/2 ([3]; Table 4) [min],"IC50 [2, 8] [nM]",MDCK Permeability (MDR1-MDCK); Mean; Papp(A-B) (10^−6 cm/s) ([4]; Table 4),MDCK Permeability (MDR1-MDCK); Mean; Papp(B-A) (10^−6 cm/s) ([4]; Table 4),"MDCK Permeability (MDR1-MDCK); Mean; P. Ratio(B-A/A-B) Efflux Ratio ([4]; Papp B-A/A-B, Table 4)",Compound,other results
–,–,–,–,–,–,"CC1(C)CC2=C(C(=O)N1)C(C)(c1cccc(S(C)(=O)=O)c1)c1cc(C(F)(F)F)cnc1N2 (single isomer, unassigned) [651B]","IC50 [1, 5]: 5000 to 20000 nM; IC50 [2, 6]: 5000 to 20000 nM"
100 to 1000,14,100 to 1000,19 10^−6 cm/s,28 10^−6 cm/s,1.5,"CCC1(c2ccccc2)C2=C(Nc3ncccc31)C(F)C(C)(C)CC2=O (single isomer, unassigned)",–
–,–,–,–,–,–,Cc1cnc2c(c1)C(C)(c1ccccc1)C1=C(CC(C)(C)CC1=O)N2 (centres unmarked),"IC50 ([1]; read-out: GSK3a 100 μM ATP Average IC50, 100 μM ATP): 100 to 1000 nM; IC50 [1, 9]: 5000 to 20000 nM; Microsome Stability (Human) (DMPK_BIIB); Mean; in vitro t1/2 ([3]; Table 3): 111 min; IC50 ([2]; read-out: GSK3b 100 μM ATP Average IC50, 100 μM ATP): 100 to 1000 nM; IC50 [2, 10]: 1000 to 5000 nM; MDCK Permeability (MDR1-MDCK); Mean; Papp(A-B) (10^−6 cm/s) ([4]; Table 3): 30 10^−6 cm/s; MDCK Permeability (MDR1-MDCK); Mean; Papp(B-A) (10^−6 cm/s) ([4]; Table 3): 16 10^−6 cm/s; MIDCK Permeability (MDR1-MDCK); Mean; P. Ratio(B-A/A-B) Efflux Ratio ([4]; Papp B-A/A-B, Table 3): 0.56"
100 to 1000,11,100 to 1000,32 10^−6 cm/s,47 10^−6 cm/s,1.5,"CCC1(c2ccccc2)C2=C(Nc3ncccc31)C(F)C1(CCC1)CC2=O (single isomer, unassigned) [1009B]",–
< 100,6.3,< 100,34 10^−6 cm/s,35 10^−6 cm/s,1,"CCC1(c2ccccc2)C2=C(Nc3ncccc31)C(F)C1(CCC1)CC2=O (single isomer, unassigned) [1009A]",–
> 5000,2.1,> 5000,23 10^−6 cm/s,21 10^−6 cm/s,0.9,"CCC1(c2ccccc2)C2=C(Nc3ncccc31)C(F)C1(CCC1)CC2=O (single isomer, unassigned) [1009C]",–
> 5000,1.6,> 5000,23 10^−6 cm/s,28 10^−6 cm/s,1.3,"CCC1(c2ccccc2)C2=C(Nc3ncccc31)C(F)C1(CCC1)CC2=O (single isomer, unassigned) [1009D]",–
–,–,–,–,–,–,"COc1cncc(F)c1-c1cccc(C2(C)C3=C(CC(C)(C)CC3=O)Nc3ncc(CC(C)(C)C)cc32)c1 (single isomer, unassigned)","IC50 [1, 9]: 5000 to 20000 nM; IC50 [2, 10]: 5000 to 20000 nM"
–,–,–,–,–,–,"CC1(C)CC(=O)C2=C(C1)Nc1ncc(CF)c(C#N)c1C2(C)c1ccccc1 (single isomer, unassigned) [614A]","IC50 [1, 5]: 100 to 1000 nM; IC50 [2, 6]: 100 to 1000 nM"

# Where two headings read alike, the source gives them in different places.
